Experiment [1] addresses PDE 4 (phosphodiesterase IV). Put plainly: PDE 4 inhibiting effect (3H-cAMP hydrolysis, PDE 4 active fraction from Balb/c mouse liver). It counts as biochemical. The following applies: PDE 4 fraction from Balb/c mice liver, 0.064 μM cAMP, 2 hours at 25° C., read-out: PDE4 IC50. The protocol: Methods for Evaluating the PDE 4 Inhibiting Effect
The PDE 4 (phosphodiesterase IV) inhibiting effect of the compounds of the present invention was performed by the following method, which was modified assay method described in Biochemical. […] That is, the livers obtained from three Balb/c mice (male, 12 weeks: obtainable from CLEA Japan, Inc.) were suspended with 30 mL of buffer solution B [20 mM of bis-tris, 5 mM of 2-mercaptoethanol, 2 mM of benzamidine, 2 mM of EDTA, 0.1 mM of 4-(2-aminoethyl)benzenesulfonyl hydrochloride, 50 mM of sodium acetate; pH 6.5], then homogenized by Polytron® homogenizer. The homogenate were centrifuged under 25,000×G for 10 minutes at 4° C. The supernatant was separated and thus obtained supernatant was further centrifuged under 100,000×G for 60 minutes at 4° C., and then filtrated with 0.2 μm filter to obtain the soluble fraction. • (2) The obtained soluble fraction was filled in equilibrium DEAE sepharose column (1×10 cm) with buffer solution B, and phosphodiesterase fractions were eluted by 120 mL of buffer solution B with linear gradient from 0.05 to 1M sodium acetate concentration. 5 mL each of 24 eluents were collected, and each eluents were examined for cyclic AMP metabolic activities of phosphodiesterase. […] After the reaction, suspension of Sephadex®-QAE in 10 mM of HEPES-Na (pH 7.0) was added to the reaction mixture, and the mixture was left at rest for 5 minutes.

Protein sequences, listed by entry. Tags and fused reporters are not part of them. Lines headed by an entry give the natural chain unless they say otherwise; changes in a name come on top.
UniProt Q13946: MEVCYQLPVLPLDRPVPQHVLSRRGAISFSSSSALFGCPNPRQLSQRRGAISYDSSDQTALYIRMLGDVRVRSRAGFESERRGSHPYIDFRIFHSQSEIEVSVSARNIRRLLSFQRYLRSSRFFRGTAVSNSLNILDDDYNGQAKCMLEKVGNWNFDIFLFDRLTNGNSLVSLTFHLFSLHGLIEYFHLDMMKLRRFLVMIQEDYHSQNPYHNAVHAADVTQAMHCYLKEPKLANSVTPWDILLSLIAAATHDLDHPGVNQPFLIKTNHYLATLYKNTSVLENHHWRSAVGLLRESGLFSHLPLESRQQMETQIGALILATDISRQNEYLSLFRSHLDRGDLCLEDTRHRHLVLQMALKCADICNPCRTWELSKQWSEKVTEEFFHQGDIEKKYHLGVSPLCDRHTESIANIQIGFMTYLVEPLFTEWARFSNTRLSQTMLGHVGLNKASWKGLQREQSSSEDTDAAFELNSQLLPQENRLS

Experiment [2] addresses PDE 7 (phosphodiesterase VII) (Homo sapiens (Human), UniProt Q13946). Put plainly: PDE 7 inhibiting effect (3H-cAMP hydrolysis, PDE 7 active fraction from MOLT-4 cells). It counts as biochemical. The following applies: read-out: PDE7 IC50. Here is the method:
Methods for Evaluating the PDE 7 Inhibiting Effect
The PDE 7 (phosphodiesterase VII) inhibiting effect of the compounds of the present invention was performed by the following method, which was modified assay method described in Biochemical. Pharmacol. 48(6), 1219-1223 (1994). • (1) The active fraction of PDE 7 (phosphodiesterase VII) was obtained. That is, MOLT-4 (obtainable from ATCC as ATCC No. CRL-1582), which was cell line of human acute lymphoblastic lymphoma T cells, was incubated in RPMI1640 culture medium containing 10% fetal bovine serum to obtain 5×10^8 MOLT-4 cells. The cells were collected by centrifugation and suspended with 10 mL of buffer solution A [25 mM of tris-HCl, 5 mM of 2-mercaptoethanol, 2 mM of benzamidine, 2 mM of EDTA, 0.1 mM of 4-(2-aminoethyl)benzenesulfonyl hydrochloride; pH 7.5], then homogenized by Polytron® homogenizer. The homogenate were centrifuged under 25,000×G for 10 minutes at 4° C. The supernatant was separated and thus obtained supernatant was further centrifuged under 100,000×G for 60 minutes at 4° C., and then filtrated with 0.2 μm filter to obtain the soluble fraction. • (2) The obtained soluble fraction was filled in equilibrium HiTrap Q column (5 mL×2) with buffer solution A, and phosphodiesterase fractions were eluted by 300 mL of buffer solution A with linear gradient from 0 to 0.8 M NaCl concentration. […]

Like-named read-outs stand apart in the source and are kept apart here.

Turning to `Cc1nn(C2CCCCC2)c2sc(C(=O)Nc3ccc(N4CCC(O)CC4)cc3)cc12` [Example 367, 1-Cyclohexyl-N-[4-(4-hydroxy-1-piperidinyl)phenyl]-3-methyl-1H-thieno[2,3-c]pyrazole-5-carboxamide methanesulfonate], the IC50 in experiment [1] (methanesulfonate) was determined as 2300 nM.

For `Cc1nn(C2CCCCC2)c2sc(C(=O)Nc3ccc(N4CCC(O)CC4)cc3)cc12` [Example 114], the IC50 in experiment [1] stood at 1500 nM. On the same count and under the same terms, the figure for `Cc1nn(C2CCCCC2)c2sc(C(=O)Nc3ccc(N4CCC(O)CC4)c(F)c3)cc12` [Example 159, 1-Cyclohexyl-N-[3-fluoro-4-(4-hydroxy-1-piperidinyl)phenyl]-3-methyl-1H-thieno[2,3-c]pyrazole-5-carboxamide] is 1600 nM. With `Cc1nn(C2CCCCC2)c2sc(C(=O)NCCN3CC(=O)NC3=O)cc12` [Example 313, 1-Cyclohexyl-N-[2-(2,4-dioxo-1-imidazolidinyl)ethyl]-3-methyl-1H-thieno[2,3-c]pyrazole-5-carboxamide], in experiment [2], the IC50 was determined as 90 nM.

The values above are taken from patent US8901315B2, “Thienopyrazole derivative having PDE7 inhibitory activity” (Daiichi Sankyo Company, Limited, priority 2004, dated 2014).
